Assay: Reduction of DPPH radical activity at 0.1 mM after 20 mins
Assay type: functional
Parameters: scale not given: the % may be the effect or the level left

With `CC(Cc1ccc(O)c(O)c1)C(C)Cc1ccc(O)c(O)c1` (stereo unspecified) the Activity was 81%.
